Experiments:
[1] = target: Beta Secretase enzyme (BACE) (Homo sapiens (Human), UniProt P56817); test: In vitro enzymatic BACE FRET assay; type: biochemical; settings: read-out: BACE1 Enzyme assay IC50
[2] = target: Cathepsin D (Cat D) (Homo sapiens (Human), UniProt P07339); test: In vitro enzymatic Cathepsin D (Cat D) FRET assay; type: biochemical; settings: read-out: CatD IC50

The chains behind the UniProt entries cited, without tags or fusion partners. Residues count along the entry.
UniProt P56817, 46-501: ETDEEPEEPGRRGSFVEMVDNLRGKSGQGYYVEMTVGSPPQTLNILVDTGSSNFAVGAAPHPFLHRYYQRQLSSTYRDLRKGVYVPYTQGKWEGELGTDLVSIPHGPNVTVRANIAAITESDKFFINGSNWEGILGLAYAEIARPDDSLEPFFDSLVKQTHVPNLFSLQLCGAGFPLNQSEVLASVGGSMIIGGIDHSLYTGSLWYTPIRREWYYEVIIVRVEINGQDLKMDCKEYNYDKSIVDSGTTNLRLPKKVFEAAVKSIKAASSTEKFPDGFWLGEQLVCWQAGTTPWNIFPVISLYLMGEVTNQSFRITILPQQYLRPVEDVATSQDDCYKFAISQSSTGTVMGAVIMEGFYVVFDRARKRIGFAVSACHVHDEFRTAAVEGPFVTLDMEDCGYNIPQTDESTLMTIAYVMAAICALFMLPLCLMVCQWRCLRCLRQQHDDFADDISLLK
UniProt P07339, 65-412, species assumed: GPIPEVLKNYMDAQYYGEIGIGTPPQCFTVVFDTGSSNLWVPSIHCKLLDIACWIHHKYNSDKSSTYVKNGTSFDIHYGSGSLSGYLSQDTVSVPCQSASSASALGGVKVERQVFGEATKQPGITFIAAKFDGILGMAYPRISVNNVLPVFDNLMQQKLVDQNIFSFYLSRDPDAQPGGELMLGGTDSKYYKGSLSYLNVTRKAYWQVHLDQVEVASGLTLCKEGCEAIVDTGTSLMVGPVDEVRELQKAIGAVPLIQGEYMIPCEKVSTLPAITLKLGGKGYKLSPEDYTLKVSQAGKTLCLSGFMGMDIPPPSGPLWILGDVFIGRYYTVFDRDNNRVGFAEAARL

SMILES | IC50 [1] | IC50 [2]
NC1=NC(c2nc(NC(=O)c3ccc(Cl)cn3)ccc2F)(C(F)F)[C@H]2C[C@H]2O1 (mixture of isomers) [Example 321, rac N-(6-((1R,5S,6R)-3-amino-5-(difluoromethyl)-2-oxa-4-azabicyclo[4.1.0]hept-3-en-5-yl)-5-fluoropyridin-2-yl)-5-chloropicolinamide] | 0.339 µM | 
Cc1cc(C(F)F)cnc1C(=O)Nc1ccc(F)c([C@@]2(CF)N=C(N)O[C@@H]3C[C@@H]32)c1 [Example 201, N-(3-((1R,5S,6R)-3-amino-5-(fluoromethyl)-2-oxa-4-azabicyclo[4.1.0]hept-3-en-5-yl)-4-fluorophenyl)-5-(difluoromethyl)-3-methylpicolinamide] |  | 515 µM
N=C1N[C@](CF)(c2cc(-c3cncc(F)c3)c(CO)cc2F)[C@H]2CC2O1 (stereo partly drawn) [Example 433, (5-fluoro-4-([(1R,S),(5S,R),(6R,S)]-5-(fluoromethyl)-3-imino-2-oxa-4-azabicyclo[4.1.0]heptan-5-yl)-2-(5-fluoropyridin-3-yl)phenyl)methanol] |  | 613 µM
